Assay results: PMC5177629, “Selective Estrogen Receptor Modulators: Cannabinoid Receptor Inverse Agonists with Differential CB1 and CB2 Selectivity” (Frontiers in Pharmacology, 2016)

The chains behind the UniProt entries cited, without tags or fusion partners.
UniProt P35372, whole entry: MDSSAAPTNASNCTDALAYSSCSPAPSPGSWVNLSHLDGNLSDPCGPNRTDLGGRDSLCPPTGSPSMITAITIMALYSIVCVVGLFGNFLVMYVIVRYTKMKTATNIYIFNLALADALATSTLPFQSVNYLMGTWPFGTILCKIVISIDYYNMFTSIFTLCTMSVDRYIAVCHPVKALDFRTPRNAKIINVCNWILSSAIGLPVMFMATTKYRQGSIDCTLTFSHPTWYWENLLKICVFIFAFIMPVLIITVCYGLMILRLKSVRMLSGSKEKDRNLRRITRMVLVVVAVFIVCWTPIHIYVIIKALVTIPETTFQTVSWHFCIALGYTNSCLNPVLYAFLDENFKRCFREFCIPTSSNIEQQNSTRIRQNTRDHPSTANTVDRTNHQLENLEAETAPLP

Target: T1, human mu opioid receptors (hMOR) (Homo sapiens, UniProt P35372)
T1 construct: expressed in transfected cells; host or cells: CHO cells (CHO-hMOR), membranes or intact cells
Assay: [35S]GTPγS binding, CHO-hMOR membranes (control devoid of CBRs)
Assay type: biochemical
Settings: 10 μM
Experimental: Non-specific binding was defined by radioactivity remaining in the presence of 10 μM of non-radioactive GTPγS. All reactions were incubated for 30 min at 30°C, terminated by filtration through Whatman GF/B glass fiber filters (Brandel, Inc.) and followed by four 4 ml washes of ice cold filtration buffer (50 mM HEPES, pH 7.4) containing 0.1% bovine serum albumin. Filter punches of individual samples were placed in scintillation vials containing 4 mls of ScintiverseTM BD cocktail scintillation fluid (Fisher Scientific, Pittsburg, PA, USA). Final counts were determined using liquid scintillation spectrophotometry (Tri Carb 2100 TR Liquid Scintillation Analyzer, Packard Instrument Company, Meriden, CT, USA) after overnight incubation.

DAMGO
increase in G-protein activity, CHO-hMOR: 53%
